Data on two sequences can be found in patent publication US11377476B2, “Ras inhibitory peptides and uses thereof” (President and Fellows of Harvard College, priority 2014, dated 2022).

Data set [1] is described as follows: Circular dichroism spectra and thermal melting at 222 nm. The conditions noted are these: CD at 222 nm, pH 8.0 (text: neutral pH for 225-1). The class given is physicochemical. In general terms: Circular dichroism is the unequal absorption of left and right circularly polarised light.
For data set [2] the following is noted: literature value for aPP; cited from earlier work.

As for “GPSQPTYPGDDAPVEDLIRFYNDLQQYLNVVA [aPP, reference compound]”, the Tm in data set [1] turned out to be 64.5 °C. Further, the “melting transition (Tm)” value in data set [2] was 62 °C.
Turning to “GPRRPRYPGDDAPVEDLIRFYNDLQQYLNVVA [aPP-M]”, the Tm in data set [1] was greater than 77 °C.
